Test system: hPSC-derived definitive endoderm (DE) cultures
Assay: Endoderm patterning of hPSC-derived DE cultures with growth factors/antagonists, qPCR and immunofluorescence
Format: cell-based, human
Settings: BMP2 100 ng mL−1
Protocol: Following DE induction, cells were treated for three days with growth factors/antagonists in RPMI 1640 with 2.0% dFBS. […] CHIR99021 is a small molecule that stimulates the Wnt signaling pathway. RA (2 μM; Sigma Aldrich) is added on the final day. Three-dimensional growth and antral specification. Posterior foregut spheroids were embedded in Matrigel (BD Biosciences) as previously described^10, 12 and subsequently grown in Advanced DMEM/F12 (Invitrogen) supplemented with N2 (Invitrogen), B27 (Invitrogen), L-glutamine, 10 μM HEPES, penicillin/streptomycin, and EGF (100 ng ml^−1; R&D Systems). For antral specification, RA and noggin were added for the first three days of three-dimensional growth. For endocrine cell specification, the EGF concentration is lowered to 10 ng ml^−1 at day 30.
The media was changed every day.
All tissues were fixed in 4% paraformaldehyde for either one hour at room temperature for frozen processing or overnight at 4° C. for paraffin processing. For frozen sections, tissue was protected in 30% sucrose overnight at 4° C., then embedded in OCT (Tissue-Tek), and cut at 10 μm. For paraffin sections, tissue was processed through a graded ethanol series, followed by xylene, and then embedded in paraffin and cut at 7 μm. Tissue culture cells were fixed for 15 minutes at room temperature and stained directly. […]

B1: BMP2: BMP ligand added at 100 ng mL−1 (protein, UniProt P12643 283-396, looked up)
Bone morphogenetic protein 2: QAKHKQRKRLKSSCKRHPLYVDFSDVGWNDWIVAPPGYHAFYCHGECPFPLADHLNSTNHAIVQTLVNSVNSKIPKACCVPTELSAISMLYLDENEKVVLKNYQDMVVEGCGCR
With B1 the “ability to posteriorize endoderm in place of or with Wnt/FGF” value was “did not substitute for or augment”.

Source: patent US12241090B2, “Methods and systems for converting precursor cells into gastric tissues through directed differentiation” (CHILDREN'S HOSPITAL MEDICAL CENTER, priority 2014, dated 2025)
